From ChEMBL document CHEMBL5728147, “Substituted aromatic n-heterocyclic compounds as inhibitors of mitogen-activated protein kinase interacting kinase 1 (MNK1) and 2 (MNK2)” (2020) come the findings set out here.

By UniProt entry, the sequences of proteins in these tests, tags left out. Where a name states a change or a piece, a line headed by the entry shows the natural chain unless it says otherwise.
UniProt Q9BUB5: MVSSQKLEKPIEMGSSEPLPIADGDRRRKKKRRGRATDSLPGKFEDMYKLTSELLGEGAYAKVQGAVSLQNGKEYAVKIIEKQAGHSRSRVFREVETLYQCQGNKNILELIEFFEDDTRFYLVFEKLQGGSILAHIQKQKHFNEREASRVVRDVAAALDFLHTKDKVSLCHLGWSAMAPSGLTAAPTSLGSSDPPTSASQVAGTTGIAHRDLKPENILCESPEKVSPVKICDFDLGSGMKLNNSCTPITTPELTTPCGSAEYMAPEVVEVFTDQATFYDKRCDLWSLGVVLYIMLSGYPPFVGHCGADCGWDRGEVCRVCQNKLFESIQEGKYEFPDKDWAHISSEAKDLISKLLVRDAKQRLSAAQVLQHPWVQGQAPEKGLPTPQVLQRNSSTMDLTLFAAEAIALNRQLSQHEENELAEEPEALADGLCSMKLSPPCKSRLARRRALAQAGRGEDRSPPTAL

For orientation: IC50 means the midpoint of a concentration-inhibition curve.

For the test, the target named is MAP kinase-interacting serine/threonine-protein kinase 1 (Homo sapiens, UniProt Q9BUB5). In words: Inhibition Assay: The synthesized compounds then were tested for inhibition of the kinase activity (IC50) of Mnk1 and/or Mnk2 using the ADP monitoring assay for kinases described in Zegzouti, H.; Zdanovskaia, M.; Hsiao, K.; Goueli, S. A., ADP-Glo: A Bioluminescent and homogeneous ADP monitoring assay for kinases.

The molecule `N#Cc1cnc(-n2cnc3ccccc32)nc1OC1CCOCC1` gave an IC50 of more than 10 µM.
